A short description of the data set: Stability of subtilin: activity retained after storage or exposure to light. Particulars: 5 days of storage at 4° C.

Turning to “subtilin [subtilin prepared according to Jensen and Hirschman]”, the “activity remaining after storage” value is “less than 5%”.

(Values after patent US20050026270A1, “Stable subtilin and methods of manufacture” (University of Maryland, priority 1999, published 2005).)
